Assay results as given in US20100104567A1, “PHARMACEUTICAL COMPOSITION” (KYOWA HAKKO KIRIN CO., LTD., priority 2007, published 2010).

Test system: human pancreatic cancer MIA-Paca-2 cells
Test: Antitumor effect of Flt-3 inhibitor and cetuximab in mouse models transplanted with MIA-Paca-2 cells
Format: in vivo
Conditions: day 24; scid mice, s.c. MIA-PaCa-2; Compound 9 50 mg/kg oral twice a day x 5 days; cetuximab 2.5 mg/head i.v. days 0, 3, 6, 9, 12
Method: C. Cetuximab alone group: 2.5 mg/head (once a day/days zero, 3, 6, 9, and 12 after the start of administration)

## Cetuximab: anti-EGFR antibodies
  T/C (V/V0 of group divided by V/V0 of negative control group): 0.53
